Data published in patent US20100298377A1, “NOVEL SUBSTITUTED INDAZOLES, THE PREPARATION THEREOF AND USE OF SAME IN THERAPEUTICS” (SANOFI-AVENTIS, priority 2007, published 2010).

Tested on: MIA PaCa-2 cells (human pancreatic carcinoma cells)
Assay: Proliferation of MIA PaCa-2 cells, intracellular ATP, CellTiter-Glo test
Format: cell-based
Conditions: 96 hours
From the text: b. Study of the Proliferation of Human Tumoral MIA PaCa-2, C-433, LnCaP and MCF7 Cells via Assay of the Intracellular ATP Using the Celltiter-Glo™ Test
The kit CellTiter-Glo™ for measuring cell viability via luminescence ([…]) is a homogeneous method for determining the number of viable cells in culture, based on quantification of the ATP present in the cells, and which indicates the presence of metabolically active cells.
The cell lines used in this test were the following: MIA PaCa-2 cells (human pancreatic carcinoma cells, ATCC, CRL-1420), C-433 cells (human Ewing sarcoma cells, DSMZ, ACC 268), LNCaP clone FGC cells (human prostate carcinoma cells, ATCC, CRL-1740), MCF7 cells (human breast carcinoma cells, ECACC, #86012803). […]
Evaluation of the Cell Viability via Luminescence Measurement: Celltiter-Glo™ Test
On day 1, the cells were inoculated at 1000 (C-433), 2500 (MCF7) and 10000 (LNCaP and MIA PaCa-2) cells per well in black-bottomed 96-well microplates (NUNC fluoronunc, Fisherbioblock 2311K) in 135 μl of whole culture medium and incubated at 37° C., 5% CO2, for 3 to 6 hours. […] The intracellular ATP was quantified by measuring the luminescence in rlu units (relative luminescence units), 96 hours after initiation of the treatment, using a luminescence counter (Wallac). […]
i) the mean±s.e.m. of each series of well replicates was calculated; […]

IC50: 5.9 µM
Structure (SMILES): CN1CCCCC1C(NC(=O)Nc1ccc2[nH]nc(C#Cc3cccc(F)c3)c2c1)c1ccccc1 [Ex 22, 1-{3-[(3-Fluorophenyl)ethynyl]-1H-indazol-5-yl}-3-[(1-methylpiperid-2-yl)(phenyl)methyl]urea((S,2S),(R,2R))]
